{
  "source": "paper PMC4569708",
  "about": "“Synergistic activation of human pregnane X receptor by binary cocktails of pharmaceutical and environmental compounds” (Nature Communications, 2015)",
  "target": "T1, PXR (Homo sapiens, UniProt O75469)",
  "T1 sequence (O75469 107-434)": "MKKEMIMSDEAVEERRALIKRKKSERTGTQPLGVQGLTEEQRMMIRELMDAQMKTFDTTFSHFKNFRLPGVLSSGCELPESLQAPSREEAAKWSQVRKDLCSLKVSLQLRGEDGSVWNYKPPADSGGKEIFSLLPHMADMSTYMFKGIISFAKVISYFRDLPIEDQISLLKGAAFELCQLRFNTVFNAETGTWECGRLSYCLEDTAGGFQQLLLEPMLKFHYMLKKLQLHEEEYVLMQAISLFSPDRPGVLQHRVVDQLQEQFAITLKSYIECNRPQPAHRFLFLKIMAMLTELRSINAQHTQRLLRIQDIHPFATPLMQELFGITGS",
  "assay": "Medium-throughput screening, HG5LN GAL4-PXR-LBD reporter cell line (HeLa)",
  "settings": "HG5LN GAL4-PXR reporter cells; 3 µM SR12813 = 100% activation; determined prior to the screening",
  "excerpt": "Using medium-throughput ligand screening and a mammalian (HeLa) cell-based activation assay (HG5LN GAL4-PXR-LBD reporter cell line)[14][15], we monitored the agonistic potential of 40 chemicals either alone or in binary mixtures (Supplementary Table 1). […] We next examined the effect of TNC, EE2, and their combination in human liver (HepG2) and colon (LS174T) carcinoma cell lines containing the full-length PXR and the CYP3A4-XREM luciferase reporter plasmids.\nLS174T stable human PXR transfectant (LS-PXR2) and the corresponding control cells (LS-CTRL), HEPG2-PXR and HG5LN GAL4-PXR reporter cell lines were previously described. […] HEPG2-PXR was obtained after stable transfection of the same PXR expressing plasmid and the XREM-CYP3A4 pGL3b reporter plasmid. […] Finally, LS174T-PXR reporter cell line was established by stable transfection of the CYP3A4-luciferase-hygromycine plasmid in the LS-PXR2 cell line. […]\nHG5LN GAL4-PXR reporter cell lines (100 μl) were seeded at a density of 25,000 cells per well in 96-well white opaque tissue culture plates (Greiner CellStar). […] Luciferase activity was measured for 2 s in intact living cells using a plate reader (PerkinElmer Luminometer). […]\n#For each ligand, the concentration used was determined prior to the screening experiment. […]",
  "data": [
    {"substance": "Hyperforin", "values": [
      {"measurement": "Concentration: dose at which the compound alone induces ≈30% of the luciferase expression obtained with 3 µM SR12813", "result": 100, "unit": "nM"}
    ]}
  ]
}
